Source: patent publication US9822127B2, “GAK modulators as antivirals” (Katholieke Universiteit Leuven, priority 2014, dated 2017)

What was measured:
Huh-7 cells = assay: Viability assay, alamarBlue, DENV infected Huh-7 cells; conditions: 72 hours; note: test concentration or dose not given here

With `COc1cc(-c2cnc3c(N4CCOCC4)snc3c2)ccc1N` [Example 50, 2-Methoxy-4-(3-morpholinoisothiazolo[4,3-]pyridin-6-yl)aniline] the “effect on cellular viability” value (Huh-7 cells) was “minimal effect on cellular viability”, the “effect on cellular viability” value (Huh-7.5 cells) was “minimal effect on cellular viability” and the CC50 (Huh-7.5 cells; human) was 8.92 ± 1.43 µM.
